In patent publication US5159002A, “Method for purifying dermostatin A and dermostatin B” (Xechem Inc., priority 1990, dated 1992):
Several values for one entry are separate records, joined by “and”; a condition that tells them apart may be missing. Equal values may be shown once.

Assays:
reverse transcriptase = test: microbe, parasite or virus in culture; type: cell-based, HIV; conditions: for activity at 0.01 µg/mL / activity at 0.1 µg/mL / activity at 1 µg/mL / activity at 5 µg/mL: Human immunodeficiency virus 1, H9, 96 h, read-out: % Viral Activity, RT; for inhibition at 0.01 µg/mL / inhibition at 0.1 µg/mL / inhibition at 1 µg/mL / inhibition at 5 µg/mL: Human immunodeficiency virus 1, H9, read-out: % Inhibition, RT
HIV antigen p24 = test: microbe, parasite or virus in culture; type: cell-based; conditions: for activity at 0.01 µg/mL / activity at 0.1 µg/mL / activity at 1 µg/mL / activity at 5 µg/mL: Human immunodeficiency virus 1, H9, 96 h, read-out: % Viral Activity, p24; for inhibition at 0.01 µg/mL / inhibition at 0.1 µg/mL / inhibition at 1 µg/mL / inhibition at 5 µg/mL: Human immunodeficiency virus 1, H9, read-out: % Inhibition, p24; for % Viral Activity, p24: h9 cells, 5760 min
HIV antigen p17 = test: microbe, parasite or virus in culture; type: cell-based; conditions: for activity at 0.01 µg/mL / activity at 0.1 µg/mL / activity at 1 µg/mL / activity at 5 µg/mL: Human immunodeficiency virus 1, H9, 96 h, read-out: % Viral Activity, p17; for inhibition at 0.01 µg/mL / inhibition at 0.1 µg/mL / inhibition at 1 µg/mL / inhibition at 5 µg/mL: Human immunodeficiency virus 1, H9, read-out: % Inhibition, p17
H9 cells = test: Survival/viability of HIV-infected H9 cells (trypan blue exclusion), % control; conditions: in vitro
HIV virus = conditions: cited from earlier work

CCC(C)C1OC(=O)/C=C/C=C/C=C/C=C/C=C/C=C/CC(O)C(C)C(O)CC(O)CC(O)CC(O)CC(O)CC(O)CC(O)CC(O)/C=C/C1C (stereo not shown) [Dermostatin B]
activity at 0.01 µg/mL (reverse transcriptase): 100%
activity at 0.1 µg/mL (reverse transcriptase): 92%
activity at 1 µg/mL (reverse transcriptase): 25%
activity at 5 µg/mL (reverse transcriptase): 13%
inhibition at 0.01 µg/mL (reverse transcriptase): 0%
inhibition at 0.1 µg/mL (reverse transcriptase): 8%
inhibition at 1 µg/mL (reverse transcriptase): 75%
inhibition at 5 µg/mL (reverse transcriptase): 87%
activity at 0.01 µg/mL (HIV antigen p24): 100%
activity at 0.1 µg/mL (HIV antigen p24): 90%
activity at 1 µg/mL (HIV antigen p24): 4%
activity at 5 µg/mL (HIV antigen p24): 3%
inhibition at 0.01 µg/mL (HIV antigen p24): 0%
inhibition at 0.1 µg/mL (HIV antigen p24): 10%
inhibition at 1 µg/mL (HIV antigen p24): 96%
inhibition at 5 µg/mL (HIV antigen p24): 97%
activity at 0.01 µg/mL (HIV antigen p17): 100%
activity at 0.1 µg/mL (HIV antigen p17): 80%
activity at 1 µg/mL (HIV antigen p17): 8%
activity at 5 µg/mL (HIV antigen p17): 4%
inhibition at 0.01 µg/mL (HIV antigen p17): 0%
inhibition at 0.1 µg/mL (HIV antigen p17): 20%
inhibition at 1 µg/mL (HIV antigen p17): 92%
inhibition at 5 µg/mL (HIV antigen p17): 96%
viability of cells in the presence of HIV (in words) (H9 cells): cell viability remains high over the tested range

CCCCC[C@@H](O)[C@H]1C(=O)O[C@H](C)[C@@H](O)/C=C/C=C/C=C/C=C/C=C(\C)[C@@H](O)[C@H](O)[C@H](O)C[C@H](O)C[C@H](O)C[C@H](O)C[C@H](O)C[C@@H]1O [Lagosin]
% Inhibition, RT (reverse transcriptase): 0%
% Inhibition, p17 (HIV antigen p17): 17%

CCCCC[C@@H](O)[C@H]1C(=O)O[C@H](C)[C@@H](O)/C=C/C=C/C=C/C=C/C=C(\C)[C@@H](O)C[C@H](O)C[C@H](O)C[C@H](O)C[C@H](O)C[C@H](O)C[C@@H]1O [Filipin]
% Inhibition, p24 (HIV antigen p24): 0%

CC(C)C1OC(=O)/C=C/C=C/C=C/C=C/C=C/CC(O)C(C)C(O)CC(O)CC(O)CC(O)CC(O)CC(O)CC(O)/C=C/C1C (stereo not shown) [Mycoticin A, reference compound]
% Inhibition, p24 (HIV antigen p24): 23% and 25% and 37%
% Inhibition, p17 (HIV antigen p17): 16% and 26% and 28%

C[C@@H]1[C@H](O)[C@@H](C)/C=C/C=C/CC/C=C/C=C/C=C/C=C/C(O[C@H]2O[C@H](C)[C@@H](O)[C@H](N)[C@@H]2O)CC2O[C@](O)(CC(O)C(O)CCC(O)CC(O)CC(O)CC(=O)O[C@H]1C)CC(O)C2C(=O)O (stereo partly shown) [Nystatin, reference compound]
% Viral Activity, p24 (HIV antigen p24): 21%
% Viral Activity, p17 (HIV antigen p17; h9 cells, 5760 min): 31%
usefulness in treatment of HIV infection (in words) (HIV virus): useful in the treatment of HIV infection

CC(C)C1OC(=O)/C=C/C=C/C=C/C=C/C=C/C=C/CC(O)C(C)C(O)CC(O)CC(O)CC(O)CC(O)CC(O)CC(O)CC(O)/C=C/C1C (stereo not shown) [Dermostatin A]
activity at 0.01 µg/mL (reverse transcriptase): 100%
activity at 0.1 µg/mL (reverse transcriptase): 80%
activity at 1 µg/mL (reverse transcriptase): 21%
activity at 5 µg/mL (reverse transcriptase): 9%
inhibition at 0.01 µg/mL (reverse transcriptase): 0%
inhibition at 0.1 µg/mL (reverse transcriptase): 20%
inhibition at 1 µg/mL (reverse transcriptase): 79%
inhibition at 5 µg/mL (reverse transcriptase): 91%
activity at 0.01 µg/mL (HIV antigen p24): 100%
activity at 0.1 µg/mL (HIV antigen p24): 100%
activity at 1 µg/mL (HIV antigen p24): 3%
activity at 5 µg/mL (HIV antigen p24): 3%
inhibition at 0.01 µg/mL (HIV antigen p24): 0%
inhibition at 0.1 µg/mL (HIV antigen p24): 0%
inhibition at 1 µg/mL (HIV antigen p24): 97%
inhibition at 5 µg/mL (HIV antigen p24): 97%
activity at 0.01 µg/mL (HIV antigen p17): 100%
activity at 0.1 µg/mL (HIV antigen p17): 100%
activity at 1 µg/mL (HIV antigen p17): 4%
activity at 5 µg/mL (HIV antigen p17): 4%
inhibition at 0.01 µg/mL (HIV antigen p17): 0%
inhibition at 0.1 µg/mL (HIV antigen p17): 0%
inhibition at 1 µg/mL (HIV antigen p17): 96%
inhibition at 5 µg/mL (HIV antigen p17): 96%
viability of cells in the presence of HIV (in words) (H9 cells): cell viability remains high over the tested range

C[C@@H]1[C@H](O)[C@@H](C)/C=C/C=C/CC/C=C/C=C/C=C/C=C/[C@H](O[C@@H]2O[C@H](C)[C@@H](O)[C@H](N)[C@@H]2O)C[C@@H]2O[C@](O)(C[C@@H](O)C[C@@H](O)[C@H](O)CC[C@@H](O)C[C@@H](O)CC(=O)O[C@H]1C)C[C@H](O)[C@H]2C(=O)O [Amphotericin A, reference compound]
% Viral Activity, RT (reverse transcriptase; Table IV, conc. not printed (line between 10 and 0.1), added with HIV, 4 days): 78%
% Viral Activity, p24 (HIV antigen p24): 36%
usefulness in treatment of HIV infection (in words) (HIV virus): useful in the treatment of HIV infection
